Measurements: patent US8182983B2, “Method for determining immune system affecting compounds” (Canimguide Therapeutics AB, priority 2002, dated 2012)

Test system: normal PBMC
Experiment: Homogenised tumour tissue and PIF incubated with serum albumin or IgG, IL-6 inducing activity
Type: cell-based, human
Method: The pelleted homogenised tumour tissue formed during preparation of PIF (se above) was kept on ice and stored at −70° C. PIF were prepared as described above. In one experiment, the homogenised sections were washed once more to collect a fourth supernatant, used as a control reflecting the IL-6 inducing activity in tumour sections before incubation. The fourth supernatant was divided into two parts, to one of which was added 20 mg/ml of HSA and directly frozen at −70° C. The mixtures of homogenised tumour tissue with 20 mg/ml HSA or with 10 mg/ml pooled human IgG for intravenous injection (IvIg), as well as the mixtures of PIF with 20 mg/ml HSA or with 10 mg/ml IvIg, all in RPMI/PEST, were incubated for 18-21.5 h at 37° C. Parallel incubations of tumour tissue and PIF with no addition of HSA or IvIg, as well as RPMI/PEST with addition of HSA or IvIg, were set up as controls. The mixtures were centrifuged and supernatants collected. The supernatants were buffer exchanged to RPMI as described previously and filtered through a 0.45 μm Millex-HV syringe filter (Millipore, MA, US) and stored at −70° C. until testing for monokine inducing activity in fresh, normal PBMC as described above.

With “albumin: human serum albumin (HSA, Octapharma)” the “production of cytokine inducing factors by washed tumour sections/homogenates” value (added to washed tumour homogenates, 18-22 h at 37° C., determined in PBMC cultures) was “markedly increased” and the “IL-6 inducing activity of fresh PIF-fractions” value (albumin added to PIF, 37° C. for 18 h, compared to no addition) was “lower”.
